Here are results for one substance from paper PMC4696747, “A Streamlined, Automated Protocol for the Production of Milligram Quantities of Untagged Recombinant Rat Lactate Dehydrogenase A Using ÄKTAxpress^TM” (PLoS ONE, 2015).

The assay deals with untagged recombinant rat lactate dehydrogenase A (rat) (UniProt P04642). As to the kind of experiment: SEC-MALS; 100 uL of 1 mg/mL rLDHA on Superdex-200 10/300 GL in Buffer-C (100 mM HEPES pH 7.5, 150 mM NaCl), 22°C, 0.5 mL/min; homo-polymer model. (In gel filtration, larger molecules generally elute earlier.)

What is called stoichiometry N is the number of molecules, sites or subunits per partner or assembly.

For the substance “untagged recombinant rat lactate dehydrogenase A (from UniProt P04642 1-332) (enzyme)”, the stoichiometry N was found to be 4.
